# Values of other authors, collected in patent US20040120985A1, “Food product for increasing the cognitive functional capacity” (priority 2001, published 2004).
# Conditions: oral administration, radioactively labeled
substance,measurement,value
phosphatidyl serine,time after which detectable in the blood,30 min
